The values that follow come from US20150073033A1 (University of Texas, published 2015).

This test deals with endogenous HIF1α (human, UniProt Q16665). Description: co-IP, U87/EGFR cells.

B1: endogenous RelA (other, human, UniProt Q04206 1-551, looked up)
chain: MDELFPLIFPAEPAQASGPYVEIIEQPKQRGMRFRYKCEGRSAGSIPGERSTDTTKTHPTIKINGYTGPGTVRISLVTKDPPHRPHPHELVGKDCRDGFYEAELCPDRCIHSFQNLGIQCVKKRDLEQAISQRIQTNNNPFQVPIEEQRGDYDLNAVRLCFQVTVRDPSGRPLRLPPVLSHPIFDNRAPNTAELKICRVNRNSGSCLGGDEIFLLCDKVQKEDIEVYFTGPGWEARGSFSQADVHRQVAIVFRTPPYADPSLQAPVRVSMQLRRPSDRELSEPMEFQYLPDTDDRHRIEEKRKRTYETFKSIMKKSPFSGPTDPRPPPRRIAVPSRSSASVPKPAPQPYPFTSSLSTINYDEFPTMVFPSGQISQASALAPAPPQVLPQAPAPAPAPAMVSALAQAPAPVPVLAPGPPQAVAPPAPKPTQAGEGTLSEALLQLQFDDEDLGALLGNSTDPAVFTDLASVDNSEFQQLLNQGIPVAPHTTEPMLMEYPEAITRLVTGAQRPPDPAPAPLGAPGLPNGLLSGDEDFSSIADMDFSALLSQISS
As to B1, the binding result is “binds”.
